Assay results: patent publication US20250108100A1, “C-TERMINAL FRAGMENT OF APOLIPOPROTEIN E AND APPLICATION THEREOF IN INHIBITING y-SECRETASE ACTIVITY” (SYNPHATEC (SHANGHAI) BIOPHARMACEUTICAL TECHNOLOGY CO., LTD., priority 2022, published 2025)

Columns and labels:
human γ-secretase = target: T1, human γ-secretase (Homo sapiens, UniProt P49768); assay: Purified system: cleavage of purified β-CTF by purified γ-secretase to Aβ40 (ELISA); assay type: biochemical; settings: purified proteins at 2.5 μM
T1 construct: full-length PS1, FL-PS1; N-terminal fragment of PS1, PS1 NTF; C-terminal fragment of PS1, PS1 CTF; made in house; host or cells: HEK 293T

PS1 = target: T2, PS1 (Homo sapiens, UniProt P49768); assay: ApoE2-APEX2 proximity labeling of co-expressed PS1 in HEK 293T cells; assay type: binding
T2 construct: expressed in transfected cells; host or cells: HEK 293T
Experimental: A method for detecting protein interactions in living cells by targeting APEX2 was applied as previously described (Hung et al., 2016). Approximately 30 hours after transfection with APEX2 plasmids via Lipofectamine2000 (Invitrogen Technology), HEK 293T cells were incubated in 1 ml of complete medium with or without 250 uM biotinphenol (BP) for 30 minutes at 37° C. Cells were treated with 1 mM H2O2 for 1 min and cells were washed 3 times in quencher solution (10 mM sodium ascorbate, 5 mM Trolox and 10 mM sodium azide solution in 1×DPBS). Cells were lysed in RIPA lysis buffer (1× protein inhibitor cocktail, 1 mM PMSF and 10 mM sodium ascorbate, 5 mM Trolox and 10 mM sodium azide). The lysate was sonicated and centrifuged on ice (12,000×g, 4° C., 10 min), and the supernatant was incubated with streptavidin magnetic beads overnight at 4° C. The beads were collected using a magnetic rack and washed with a series of buffers (twice with RIPA buffer, once with 1M KCl, once with 0.1M Na2CO3, twice with 2 M urea in 10 mM Tris-HCl, pH 8.0, and twice with RIPA lysis buffer. Biotinylated proteins were eluted from the beads by boiling each sample in loading buffer comprising 2 mM biotin and 20 mM DTT for 10 min, and the eluates were collected. Samples proceed to Western blot.

Row | Substance | Aβ40 production from β-CTF by γ-secretase (human γ-secretase) | biotinylation of co-expressed PS1 (PS1)
1 | ApoE2: human apolipoprotein E2, full-length 299 amino acid residues, SEQ ID NO: 12 | can significantly inhibit the production of Aβ; also recorded: can inhibit Aβ40 | 
2 | ApoE2-APEX2: ApoE2 fused to APEX2 (ascorbate peroxidase 2) for proximity labeling |  | biotinylated

“Also recorded” adds a separate entry of the source.
